The source of these data is US20080085884A1, “Melanin Concentrating Hormone Receptor-1 Antagonist Pyridinones” (Pfizer Inc, priority 2006, published 2008).

Protein sequences, listed by entry. Tags and fused reporters are not part of them.
UniProt Q99705, whole entry: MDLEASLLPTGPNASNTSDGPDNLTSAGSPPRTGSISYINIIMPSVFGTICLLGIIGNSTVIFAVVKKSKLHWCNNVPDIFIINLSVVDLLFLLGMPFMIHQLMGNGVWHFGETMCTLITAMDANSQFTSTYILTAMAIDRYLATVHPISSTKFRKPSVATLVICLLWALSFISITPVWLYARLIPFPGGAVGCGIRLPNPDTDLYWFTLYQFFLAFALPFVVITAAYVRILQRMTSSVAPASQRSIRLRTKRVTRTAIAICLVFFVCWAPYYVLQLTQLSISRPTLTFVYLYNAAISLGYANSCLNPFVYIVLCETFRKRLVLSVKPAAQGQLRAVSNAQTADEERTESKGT

The test addresses human MCHR1 (Homo sapiens, UniProt Q99705). As to the kind of experiment: Cyclic AMP assay (MCHR-1 functional antagonism). The settings on record: read-out: MCHR-1 functional Ki; CHO cells stably expressing human MCHR1; cAMP accumulation with 25 uM forskolin and 0.2 nM MCH, 90 min; Ki from IC50 by Cheng-Prusoff.
As usually defined, the Ki is a measure of affinity in units of concentration, obtained from inhibition or displacement. For `CC(C)(C)OC(=O)N[C@@H]1CN(c2ccc(-n3ccc(OCc4ccccc4)cc3=O)cn2)C[C@H]1C(F)(F)F` (relative stereo), the Ki was 258 nM.

Consider `N[C@@]12C[C@@H]1CN(c1ccc(-n3ccc(OCc4ccccc4)cc3=O)cn1)C2` (relative stereo), for which the Ki worked out at 16.6 nM.

As to `CNC1CCCN(c2ccc(-n3ccc(OCc4ccccc4)cc3=O)cn2)C1` (single isomer, unassigned) [41b], the inhibition constant Ki amounted to 19.2 nM.

On to `C[C@H]1CN(c2ccc(-n3ccc(OCc4ccccc4)cc3=O)cn2)C[C@]1(C)N` (relative stereo) [228], for which the Ki was 6.18 nM.

`CC(C)(C)OC(=O)N1CCC[C@@H]2CN(c3ccc(-n4ccc(OCc5ccc(Cl)cc5)cc4=O)cn3)C[C@@H]21`: the Ki came to 5.31 nM.

Regarding `CC(=O)N(C)C1CCN(c2ccc(-n3ccc(OCc4ccc(F)cc4)cc3=O)cn2)C1` (single isomer, unassigned) [82b], the Ki stood at 36.7 nM.

With `CN1CCC[C@H]2CN(c3ccc(-n4ccc(OCc5ccccc5)cc4=O)cn3)C[C@H]21`, the Ki came to 19.4 nM.

Turning to `O=c1cc(OCc2ccc(Cl)cc2)ccn1-c1ccc(N2C[C@H]3CCCN[C@H]3C2)nc1`, the Ki is 2.9 nM.

With `CC(C)(C)OC(=O)N1CCC[C@H]2CN(c3ccc(-n4ccc(OCc5ccc(F)cc5)cc4=O)cn3)C[C@H]21`, the inhibition constant (Ki) came to 15.7 nM.

In the case of `O=c1cc(OCc2ccccc2)ccn1-c1ccc(N2C[C@@H]3CCCN[C@@H]3C2)nc1`, the Ki is 9.31 nM.

For the compound `O=c1cc(OCc2ccc(Cl)cc2)ccn1-c1ccc(N2CCC(N3CCC3)C2)nc1` (single isomer, unassigned) [100a], the Ki came to 2.67 nM.

Take `COC(=O)N1CCC[C@@H]2CN(c3ccc(-n4ccc(OCc5ccccc5)cc4=O)cn3)C[C@@H]21`: the Ki is 45.9 nM.

As for `CC(=O)N(C)C1CCCN(c2ccc(-n3ccc(OCc4ccccc4)cc3=O)cn2)C1` (single isomer, unassigned) [42b], the Ki was 127 nM.

For `COC(=O)N1CCC[C@H]2CN(c3ccc(-n4ccc(OCc5ccccc5)cc4=O)cn3)C[C@H]21`, the Ki came to 42.9 nM.

With `O=c1cc(OCc2ccccc2)ccn1-c1ccc(N2CC3CCCC2C3)nc1` (centres unmarked), the Ki came out at 101 nM.

For `CC(C)(C)OC(=O)N1CCC[C@@H]2CN(c3ccc(-n4ccc(OCc5ccccc5)cc4=O)cn3)C[C@@H]21`, the Ki came to 22.7 nM.

With `N[C@@H]1CCN(c2ccc(-n3ccc(OCc4ccc(F)cc4)cc3=O)cn2)C1`, the Ki was found to be 5.68 nM.

As for `CC1(N)CN(c2ccc(-n3ccc(OCc4ccc(F)cc4)cc3=O)cn2)C1`, the Ki came to 94.7 nM.

As for `CNC1CCCN(c2ccc(-n3ccc(OCc4ccccc4)cc3=O)cn2)C1` (single isomer, unassigned) [41a], the Ki came out at 19.9 nM.

As for `O=c1cc(OCc2ccc(F)cc2)ccn1-c1ccc(N2CCC(N3CCC3)C2)nc1` (single isomer, unassigned) [89a], the Ki turned out to be 3.45 nM.

`N[C@]12CCC[C@H]1CN(c1ccc(-n3ccc(OCc4ccccc4)cc3=O)cn1)C2` (relative stereo): the Ki is 20.8 nM.

`CN(C)[C@H]1CN(c2ccc(-n3ccc(OCc4ccccc4)cc3=O)cn2)C[C@@H]1O` (relative stereo): the Ki is 85.5 nM.

Take `O=c1cc(OCc2ccc(F)cc2)ccn1-c1ccc(N2CCN3CCC[C@H]3C2)nc1`: the Ki came out at 116 nM.

For `COC(=O)N1CCC[C@@H]2CN(c3ccc(-n4ccc(OCc5ccc(F)cc5)cc4=O)cn3)C[C@@H]21`, the Ki stood at 42.6 nM.

As to `O=c1cc(OCc2ccc(F)cc2)ccn1-c1ccc(N2C[C@H]3CNC[C@H]3C2)nc1`, the Ki worked out at 4.46 nM.

As for `N[C@@H]1CN(c2ccc(-n3ccc(OCc4ccccc4)cc3=O)cn2)C[C@H]1C(F)(F)F` (relative stereo), the Ki turned out to be 234 nM.

`COC(=O)N1CCC[C@H]2CN(c3ccc(-n4ccc(OCc5ccc(F)cc5)cc4=O)cn3)C[C@H]21`: the Ki was 42 nM.

`C[C@@H]1CN(c2ccc(-n3ccc(OCc4ccccc4)cc3=O)cn2)[C@@H](C)CN1` (relative stereo): the Ki amounted to 2480 nM.

Consider `COC(=O)N1C[C@@H]2CCN(c3ccc(-n4ccc(OCc5ccccc5)cc4=O)cn3)[C@@H]2C1` (relative stereo), for which the Ki amounted to 72 nM.

As to `CN[C@H]1CCN(c2ccc(-n3ccc(CCc4ccccc4)cc3=O)cn2)C1`, the Ki was 6.9 nM.

In the case of `CC(C)(C)OC(=O)N1CC2CCN(c3ccc(-n4ccc(OCc5ccccc5)cc4=O)cn3)C2C1` (single isomer, unassigned) [Example 53a], the Ki turned out to be 47.6 nM.

Take `NC[C@@]12C[C@@H]1CN(c1ccc(-n3ccc(OCc4ccccc4)cc3=O)cn1)C2` (relative stereo): the Ki is 8.03 nM.

`CC(C)(C)OC(=O)N1CCC[C@H]2CN(c3ccc(-n4ccc(OCc5ccc(Cl)cc5)cc4=O)cn3)C[C@H]21`: the Ki is 8.23 nM.

For the compound `O=c1cc(OCc2ccc(F)cc2)ccn1-c1ccc(N2C[C@@H](O)[C@@H](O)C2)nc1`, the Ki is 711 nM.

With `N[C@]12CCCC[C@H]1CN(c1ccc(-n3ccc(OCc4ccccc4)cc3=O)cn1)C2` (relative stereo) [75], the Ki worked out at 24 nM.

Regarding `O=c1cc(OCc2ccccc2)ccn1-c1ccc(N2C[C@H](O)[C@@H](N3CCCCC3)C2)nc1` (relative stereo), the Ki is 40.2 nM.

On to `CC(=O)N1CC[C@@H]2CN(c3ccc(-n4ccc(OCc5ccccc5)cc4=O)cn3)C[C@@H]21` (relative stereo), for which the inhibitory constant (Ki) came out at 110 nM.

In the case of `O=c1cc(OCc2ccccc2)ccn1-c1ccc(N2CCC(N3CCC3)C2)nc1` (single isomer, unassigned) [62b], the Ki amounted to 11.4 nM.

For the compound `O=c1cc(OCc2ccccc2)ccn1-c1ccc(N2C[C@@H]3C[C@H]2CN3)nc1` [68], the Ki is 119 nM.

In the case of `CNC1(C)CN(c2ccc(-n3ccc(OCc4ccc(F)cc4)cc3=O)cn2)C1`, the Ki worked out at 105 nM.

Turning to `O=c1cc(OCc2ccccc2)ccn1-c1ccc(N2CC[C@@H]3CNC[C@@H]32)nc1`, the Ki was determined as 14.9 nM.

Consider `CN(C)C1CCCN(c2ccc(-n3ccc(OCc4ccccc4)cc3=O)cn2)C1` (single isomer, unassigned) [38b], for which the Ki stood at 7.16 nM.

For `O=c1cc(OCc2ccc(Cl)cc2)ccn1-c1ccc(N2C[C@@H]3CCCN[C@@H]3C2)nc1`, the Ki came to 3.23 nM.

For the compound `CN[C@H]1CCN(c2ccc(-n3ccc(OCc4ccccc4)cc3=O)nn2)C1`, the Ki worked out at 417 nM.

With `CC(C)(C)OC(=O)N[C@@H]1CCN(c2ccc(-n3ccc(OCc4ccccc4)cc3=O)nn2)C1`, the Ki is 3800 nM.

Turning to `CCN(C(=O)OC(C)(C)C)[C@H]1CCN(c2ccc(-n3ccc(OCc4ccccc4)cc3=O)cn2)C1`, the Ki is 31.4 nM.

Turning to `CNC1(C)CN(c2ccc(-n3ccc(OCc4ccccc4)cc3=O)cn2)C1`, the Ki amounted to 100 nM.

As to `O=c1cc(OCc2ccc(F)cc2)ccn1-c1ccc(N2C[C@H]3CCCN[C@H]3C2)nc1`, the Ki worked out at 4.48 nM.

For the compound `CN[C@@H]1CCN(c2ccc(-n3ccc(OCc4ccc(F)cc4)cc3=O)cn2)C1`, the Ki turned out to be 12.7 nM.

Turning to `CC(C)(C)OC(=O)N1CC2CCN(c3ccc(-n4ccc(OCc5ccccc5)cc4=O)cn3)C2C1` (single isomer, unassigned) [Example 53b], the Ki was 10 nM.

As to `CN1CCC[C@@H]2CN(c3ccc(-n4ccc(OCc5ccccc5)cc4=O)cn3)C[C@@H]21`, the Ki is 14.3 nM.

Regarding `O=c1cc(OCc2ccc(F)cc2)ccn1-c1ccc(N2C[C@@H]3CCCN[C@@H]3C2)nc1`, the Ki was 4.86 nM.

Take `CC(C)(C)OC(=O)N1CCC[C@@H]2CN(c3ccc(-n4ccc(OCc5ccc(F)cc5)cc4=O)cn3)C[C@@H]21`: the Ki stood at 7.75 nM.

Take `CC(=O)N(C)C1CCCN(c2ccc(-n3ccc(OCc4ccccc4)cc3=O)cn2)C1` (single isomer, unassigned) [42a]: the Ki came out at 24.4 nM.

As to `CN(C)[C@H]1CN(c2ccc(-n3ccc(OCc4ccc(Cl)cc4)cc3=O)cn2)C[C@@H]1O` (relative stereo), the Ki is 36.6 nM.

Consider `O=c1cc(OCc2ccc(Cl)cc2)ccn1-c1ccc(N2C[C@H](O)[C@@H](N3CCCC3)C2)nc1` (relative stereo), for which the Ki worked out at 34.8 nM.

`O=c1cc(OCc2ccccc2)ccn1-c1ccc(N2C[C@H]3CCC[C@@H](O)[C@H]3C2)nc1` (relative stereo): the Ki was 34.7 nM.

For the compound `CC(C)(C)OC(=O)N1CC[C@H]2CN(c3ccc(-n4ccc(OCc5ccccc5)cc4=O)cn3)C[C@H]21` (relative stereo), the Ki came out at 271 nM.

Take `O=c1cc(OCc2ccccc2)ccn1-c1ccc(N2C[C@H]3CCCN[C@H]3C2)nc1`: the Ki was determined as 9.15 nM.

As for `O=c1cc(OCc2ccc(F)cc2)ccn1-c1ccc(N2CCC(N3CCC3)C2)nc1` (single isomer, unassigned) [89b], the Ki was found to be 5.06 nM.

As to `O=c1cc(OCc2ccccc2)ccn1-c1ccc(N2C[C@H]3CC[C@@H]2C3)nc1` (relative stereo), the Ki stood at 76.1 nM.

Take `CC(=O)N(C)C1CCN(c2ccc(-n3ccc(OCc4ccc(F)cc4)cc3=O)cn2)C1` (single isomer, unassigned) [82a]: the Ki worked out at 28.5 nM.

Turning to `O=c1cc(OCc2ccccc2)ccn1-c1ccc(N2C[C@@H]3C[C@H]2CN3)nc1` [215], the Ki came to 161 nM.

For `CN1C[C@@H]2CN(c3ccc(-n4ccc(OCc5ccccc5)cc4=O)cn3)C[C@@H]2C1`, the Ki came out at 3.47 nM.

For the compound `N[C@@H]1CCN(c2ccc(-n3ccc(OCc4ccccc4)cc3=O)nn2)C1`, the Ki was 659 nM.

On to `O=c1cc(OCc2ccccc2)ccn1-c1ccc(N2C[C@H](O)[C@@H](N3CCCC3)C2)nc1` (relative stereo), for which the Ki is 86.7 nM.

Turning to `C[C@H]1CN(c2ccc(-n3ccc(OCc4ccccc4)cc3=O)cn2)C[C@]1(C)N` (relative stereo) [74], the Ki was determined as 7.37 nM.

In the case of `CN[C@@H]1CN(c2ccc(-n3ccc(OCc4ccc(Cl)cc4)cc3=O)cn2)C[C@H]1O` (relative stereo), the Ki came out at 49.5 nM.

Turning to `CN(C)C1CCCN(c2ccc(-n3ccc(OCc4ccccc4)cc3=O)cn2)C1` (single isomer, unassigned) [38a], the Ki was 49.9 nM.

As to `CCN[C@H]1CCN(c2ccc(-n3ccc(OCc4ccccc4)cc3=O)cn2)C1`, the Ki is 9.92 nM.

With `O=c1cc(OCc2ccc(Cl)cc2)ccn1-c1ccc(N2CCC(N3CCC3)C2)nc1` (single isomer, unassigned) [100b], the Ki was found to be 9.82 nM.
